Values quoted from earlier work, collected in paper PMC4561054 (Drugs in R&D, 2015).

Details: cited from earlier work
[1] = severe renal impairment vs healthy, 1-μg/kg subcutaneous single dose

Row | Substance | Reduction in clearance (ESRD on hemodialysis, package label) | Decreases in apparent clearance (renal impairment vs healthy, 1-μg/kg subcutaneous single dose) | Increase in AUC [1] | Increase in Cmax [1]
1 | interferon-α2a: interferon largely metabolized by the liver; package label (Pegasys) | 25–45% |  |  | 
2 | interferon-α2b: interferon studied in a single-dose pharmacokinetic study in renal impairment (ref 14: pegylated interferon-alpha2b) |  | up to 45% | 90% | 90%
